{"source": "paper PMC8403742", "about": "“A single point mutation causes one-way alteration of pheromone receptor function in two Heliothis species” (iScience, 2021)", "system": "chimeric OR6s (VSV and SVS)", "assay": "Chimeric OR6s VSV and SVS co-expressed with HvirOrco in Xenopus oocytes", "settings": "10^-4 M, chimeras VSV and SVS"}
{"molecule": "CCCC/C=C\\CCCCCCCC=O", "note": "[Z9-14:Ald, (Z)-9-tetradecenal]", "values": [{"measurement": "response of chimeric OR6s compared with original sequences (VVV and SSS)", "value": "did not change significantly"}]}
